Data: BindingDB's records for doi:10.1007/BF02244985 (Mayo Clinic, 1994)

Sequences of proteins named here, by UniProt entry; tags and fusion partners are left off.
UniProt P08908, whole entry: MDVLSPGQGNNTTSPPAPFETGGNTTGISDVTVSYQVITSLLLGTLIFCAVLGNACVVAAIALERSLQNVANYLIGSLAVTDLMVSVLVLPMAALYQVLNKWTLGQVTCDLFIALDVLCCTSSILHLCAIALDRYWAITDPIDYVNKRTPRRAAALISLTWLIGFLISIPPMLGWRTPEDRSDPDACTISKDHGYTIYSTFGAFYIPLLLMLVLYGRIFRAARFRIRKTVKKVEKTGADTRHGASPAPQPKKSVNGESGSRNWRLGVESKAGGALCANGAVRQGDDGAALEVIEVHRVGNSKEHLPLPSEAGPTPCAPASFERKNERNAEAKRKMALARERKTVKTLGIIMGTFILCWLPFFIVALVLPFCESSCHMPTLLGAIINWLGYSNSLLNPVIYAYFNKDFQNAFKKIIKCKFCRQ
UniProt P08913, whole entry: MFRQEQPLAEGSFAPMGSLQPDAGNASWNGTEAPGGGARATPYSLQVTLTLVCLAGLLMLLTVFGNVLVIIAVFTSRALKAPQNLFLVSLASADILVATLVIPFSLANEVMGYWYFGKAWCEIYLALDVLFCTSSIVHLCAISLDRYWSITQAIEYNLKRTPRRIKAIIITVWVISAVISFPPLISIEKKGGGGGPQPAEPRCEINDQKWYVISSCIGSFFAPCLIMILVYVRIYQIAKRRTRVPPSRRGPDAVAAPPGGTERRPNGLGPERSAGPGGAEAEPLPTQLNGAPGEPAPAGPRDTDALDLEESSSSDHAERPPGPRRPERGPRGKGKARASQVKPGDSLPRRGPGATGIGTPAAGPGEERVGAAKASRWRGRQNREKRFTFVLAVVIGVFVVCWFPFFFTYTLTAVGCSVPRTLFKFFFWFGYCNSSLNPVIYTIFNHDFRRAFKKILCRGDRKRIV

Key:
[1] = target: 5-hydroxytryptamine receptor 1A (Homo sapiens, UniProt P08908)
[2] = target: Alpha-2A adrenergic receptor (Homo sapiens, UniProt P08913)

With `CNCCC(Oc1ccccc1C)c1ccccc1` (configuration not stated) [Methyl-(3-phenyl-3-o-tolyloxy-propyl)-amine(tomoxetine)] as the compound, how does the Ki [1] read?
The Ki was greater than 10 µM.

What about the Ki [2] of the same compound?
Its Ki is 8.8 µM.
